According to PMC12339401, “Reconstitution of BNIP3/NIX-mitophagy initiation reveals hierarchical flexibility of the autophagy machinery” (Nature Cell Biology, 2025):

Molecular target: T1, GFP-tagged ATG13/101 subcomplex (UniProt O75143 1-517; Q9BSB4 1-218)
T1 construct: ATG13, GST-TEV-GFP-tagged ATG13; ATG101; source: HEK293F cells, purified; not shown: GFP, N-terminal, kept
T1 sequence (looked up) 1: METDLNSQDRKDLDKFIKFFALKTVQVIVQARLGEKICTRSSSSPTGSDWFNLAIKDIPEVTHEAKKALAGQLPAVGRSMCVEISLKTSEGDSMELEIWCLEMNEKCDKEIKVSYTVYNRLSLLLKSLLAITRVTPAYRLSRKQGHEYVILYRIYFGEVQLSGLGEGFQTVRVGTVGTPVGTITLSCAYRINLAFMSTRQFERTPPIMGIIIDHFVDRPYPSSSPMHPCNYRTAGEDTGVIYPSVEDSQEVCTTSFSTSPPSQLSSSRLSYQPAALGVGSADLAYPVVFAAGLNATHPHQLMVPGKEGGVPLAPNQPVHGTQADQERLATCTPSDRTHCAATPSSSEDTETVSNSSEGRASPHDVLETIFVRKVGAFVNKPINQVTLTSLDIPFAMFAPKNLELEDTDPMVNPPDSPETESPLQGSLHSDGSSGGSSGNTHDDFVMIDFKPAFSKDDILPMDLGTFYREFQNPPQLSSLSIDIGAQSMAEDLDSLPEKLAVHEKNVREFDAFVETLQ
T1 sequence (looked up) 2: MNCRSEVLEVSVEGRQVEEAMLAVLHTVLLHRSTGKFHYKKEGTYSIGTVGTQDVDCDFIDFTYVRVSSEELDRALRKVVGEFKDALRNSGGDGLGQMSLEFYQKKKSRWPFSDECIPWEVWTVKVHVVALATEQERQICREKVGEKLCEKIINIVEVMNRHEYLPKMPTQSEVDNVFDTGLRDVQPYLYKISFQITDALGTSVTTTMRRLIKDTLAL
Experiment: microscopy-based bead assay; GFP-tagged bait on GFP-trap agarose beads, mCherry-tagged prey in solution, confocal imaging
Conditions: both partners purified

B1: mCherry-WIPI3 (natural protein)
chain: not shown
notes: 6xHis-TEV-mCherry tag; also called mCherry-tagged WIPI3; source: E. coli Rosetta pLysS, purified; not shown: mCherry, N-terminal, kept
  binding result: binds
